From ChEMBL document CHEMBL3856250, “Discovery of 6-Fluoro-5-(R)-(3-(S)-(8-fluoro-1-methyl-2,4-dioxo-1,2-dihydroquinazolin-3(4H)-yl)-2-methylphenyl)-2-(S)-(2-hydroxypropan-2-yl)-2,3,4,9-tetrahydro-1H-carbazole-8-carboxamide (BMS-986142): A Reversible Inhibitor of Bruton's Tyrosine Kinase (BTK) Conformationally Constrained by Two …” (J Med Chem, 2016)

By UniProt entry, the sequences of proteins in these tests, tags left out. Where a name states a change or a piece, a line headed by the entry shows the natural chain unless it says otherwise.
UniProt Q06187: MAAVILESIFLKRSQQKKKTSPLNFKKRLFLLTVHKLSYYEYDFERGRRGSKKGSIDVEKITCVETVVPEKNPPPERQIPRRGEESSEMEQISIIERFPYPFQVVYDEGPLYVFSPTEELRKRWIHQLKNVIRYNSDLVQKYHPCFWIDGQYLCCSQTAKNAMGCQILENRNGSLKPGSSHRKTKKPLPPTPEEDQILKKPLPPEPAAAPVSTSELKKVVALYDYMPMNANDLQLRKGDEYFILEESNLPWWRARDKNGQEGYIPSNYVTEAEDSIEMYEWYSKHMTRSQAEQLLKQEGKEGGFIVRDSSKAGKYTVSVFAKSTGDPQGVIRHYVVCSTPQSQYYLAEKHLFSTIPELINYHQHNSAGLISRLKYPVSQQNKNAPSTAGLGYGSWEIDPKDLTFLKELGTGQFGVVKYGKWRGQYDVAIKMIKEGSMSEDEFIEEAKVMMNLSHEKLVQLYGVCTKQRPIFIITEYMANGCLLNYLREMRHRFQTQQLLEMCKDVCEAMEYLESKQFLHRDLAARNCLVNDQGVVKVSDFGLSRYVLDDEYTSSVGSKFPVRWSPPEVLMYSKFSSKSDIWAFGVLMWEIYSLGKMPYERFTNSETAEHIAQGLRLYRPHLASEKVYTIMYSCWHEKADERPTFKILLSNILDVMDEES

Tests used:
[1] = target: T1, Tyrosine-protein kinase BTK (Homo sapiens, UniProt Q06187); assay: Inhibition of BTK in human whole blood assessed as suppression of BCR/anti-IgM/IgG-stimulated CD69 surface expression after 18 hrs with agitation by FITC-staining based FACS analysis; type: tissue-based
[2] = target: T1, Tyrosine-protein kinase BTK
[3] = target: T1, Tyrosine-protein kinase BTK; assay: Inhibition of BTK in human Ramos-B cells assessed as suppression of BCR/anti-IgM-stimulated Ca2+ flux after 1 hr incubation in dark by FLIPR1 assay

Row | pIC50 [1] | pIC50 [2] | pIC50 [3] | SMILES
1 | 6.80 | 8.82 | 7.72 | Cc1c(-c2c(Cl)cc(C(N)=O)c3[nH]c4c(c23)CC[C@H](C(C)(C)O)C4)cccc1-n1c(=O)c2cccc(F)c2n(C)c1=O
2 | 6.00 and 6.20 and 6.72 | – | 7.72 | Cc1c(-c2ccc(C(N)=O)c3[nH]c4cc(C(C)(C)O)ccc4c23)cccc1-n1c(=O)c2cccc(F)c2n(C)c1=O
3 | 6.46 | 8.59 | 7.08 | Cc1c(-c2c(Cl)cc(C(N)=O)c3[nH]c4c(c23)CC[C@@H](C(C)(C)O)C4)cccc1-n1c(=O)c2cccc(F)c2n(C)c1=O
4 | 7.05 and 6.49 | – | 7.96 | Cc1c(-c2c(Cl)cc(C(N)=O)c3[nH]c4cc(C(C)(C)O)ccc4c23)cccc1-n1c(=O)c2cccc(F)c2n(C)c1=O

pIC50: −log10 of the molar value. Values joined by “and” are separate entries in the source; they are usually repeats but may differ in a detail not shown here. Identical values can stand only once.
